SMILES strings stand for the structures. The entries are a selection whose mix differs from that of the whole data set. Activity calls are given as the source filed them. No stated cut-off is given here; in the data, active means binding response below about 67% or above about 130%; inconclusive means no clear call, values can overlap the other calls; inactive means in between.

This note sets out measurements from PubChem BioAssay AID1531 (NMMLSC, 2009).

The target in the assay is Mitogen-activated protein kinase kinase kinase 2 (Homo sapiens) (UniProt Q9Y2U5). The assay is described as follows: wildtype MEKK2 PB1-MEK5 interaction, increase or decrease – biochemical, multiplex bead flow cytometry, Alexa488-MEK5, primary screen (AID 1531). To be noted: Alexa488-MEK5 binding to MEKK2 WT, at 10 µM, actives lie on both sides.
In the case of `N#Cc1ccc(C(=O)NCC2(N3CCCCC3)CCCCC2)cc1`, the binding response (% of control) was inactive: 109%.
To `CC(C)(C)OC(=O)N1CCC(N(C(=O)c2ccccc2)c2ccc(Cl)cc2)CC1` belongs inactive: 93%.
To `CN(C)C1(CNC(=O)c2cccc(C#N)c2)CCCCC1` belongs inactive: 101%.
To `CCCN1CCC(Nc2cc(OC)cc(OC)c2)CC1` belongs inactive: 112%; to `c1ccc(CN2CCC(Nc3ccccc3)CC2)cc1`, inactive: 98%.
Consider `COc1ccc(C(=O)NCC2(N3CCOCC3)CCCCC2)cc1OC`, for which the binding response (% of control) was inactive: 80%.
As for `O=C(OC1CN2CCC1CC2)C1c2ccccc2C=Cc2ccccc21` (centres undefined), the binding response (% of control) is inactive: 112%.
To `CCOC(=O)N1CCC(Nc2ccc(C)cc2)CC1` belongs inactive: 108%.
To `O=C(O)C1(Nc2ccccc2)CCN(Cc2ccccc2)CC1` belongs inactive: 103%; to `CC(C)(C)OC(=O)N1CCC(Nc2ccccc2)CC1`, inactive: 98%.
To `CCCOc1ccc(C(=O)NCC2(N(C)C)CCCCC2)cc1` belongs inactive: 109%; to `CN1CCC(Nc2ccc(F)c(Cl)c2)CC1`, inactive: 105%; to `CCOc1ncccc1C(=O)NCC1(N2CCOCC2)CCCCC1`, inactive: 91%.
Turning to `CN1CCC(Nc2ccc(Cl)cc2)CC1`, the binding response (% of control) was inactive: 106%.
Regarding `CCCOc1ccc(C)cc1CN(CCCl)CCCl`, the binding response (% of control) was inactive: 97%.
To `COc1cc(OC)cc(C(=O)NCC2(N3CCOCC3)CCCCC2)c1` belongs inactive: 96%; to `COc1cccc(C(=O)N(c2cc(C)cc(C)c2)C2CCN(C(=O)OC(C)(C)C)CC2)c1`, inactive: 96%; to `CCC(CO)(C(=O)OC1CN2CCC1CC2)c1ccccc1` (centres undefined), inactive: 105%.
To `Fc1ccccc1NC1CCN(Cc2ccccc2)CC1` belongs inactive: 99%; to `COc1cc(OC)cc(C(=O)NCC2(N3CCCCC3)CCCCC2)c1`, inactive: 104%; to `CN(C)c1ccc(C(=O)NCC2(N3CCCCC3)CCCCC2)cc1`, inactive: 100%.
As for `CCN1CCC(Nc2cccc(F)c2)CC1`, the binding response (% of control) was inactive: 97%.
For the molecule `COc1ccc(NC2CCN(CCc3ccccc3)CC2)c(OC)c1`, the binding response (% of control) is inactive: 118%.
Regarding `CCOC(=O)N1CCC(Nc2ccc(F)cc2)CC1`, the binding response (% of control) is inactive: 104%.
The value for `O=C(NCC1(N2CCCCC2)CCCCC1)c1ccc(F)cc1` was inactive: 100%; that for `CCOc1ccc(C)cc1CN(CCCl)CCCl` was inactive: 98%.
The value for `Cc1ccc(OCC(C)C)c(CN(CCCl)CCCl)c1` was inactive: 106%; that for `CCOC(=O)N1CCC(Nc2cccc(C)c2)CC1` was inactive: 104%.
To `COc1cc(C(=O)NCC2(N(C)C)CCCCC2)ccc1OC(F)F` belongs inactive: 100%; to `CSc1ccccc1C(=O)NCC1(N2CCCCC2)CCCCC1`, inactive: 103%; to `COc1ccc(C(=O)NCC2(N3CCCCC3)CCCCC2)c(OC)c1OC`, inactive: 104%.
For `CC(C)(C)OC(=O)N1CCC(N(C(=O)c2ccccc2)c2ccc(F)cc2)CC1`, the binding response (% of control) was inactive: 100%.
To `COc1ccc(C(=O)NCC2(N3CCCCC3)CCCCC2)cc1` belongs inactive: 104%; to `O=C(NCC1(N2CCCCC2)CCCCC1)c1ccc(=O)[nH]c1`, inactive: 105%; to `N#CC1(Nc2ccccc2)CCN(Cc2ccccc2)CC1`, inactive: 107%.
To `O=C(OC1CN2CCC1CC2)C1c2ccccc2Oc2ccccc21` (centres undefined) belongs inactive: 117%.
The value for `CCOC(=O)N1CCC(Nc2ccc(OC)cc2)CC1` was inactive: 98%; that for `Cc1cc(C)cc(N(C(=O)c2ccccc2)C2CCN(C(=O)OC(C)(C)C)CC2)c1` was inactive: 107%.
For `O=C(NCC1(N2CCOCC2)CCCCC1)c1cc2ccccc2o1`, the binding response (% of control) was inactive: 104%.
To `COc1cc(OC)c(C(=O)NCC2(N(C)C)CCCCC2)cc1OC` belongs inactive: 102%; to `CC(C)c1ccc(NC2CCN(C(=O)OC(C)(C)C)CC2)cc1`, inactive: 97%; to `CN(C)c1cccc(C(=O)NCC2(N3CCCCC3)CCCCC2)c1`, inactive: 124%.
In the case of `COc1ccc(CN(CCCl)CCCl)cc1Cl`, the binding response (% of control) is inactive: 89%.
The value for `CCCOc1ccc(C(=O)NCC2(N(C)C)CCCCC2)cc1OC` was inactive: 98%; that for `CN1CCC(Nc2cccc(F)c2)CC1` was inactive: 98%; that for `N#CC1(Nc2ccccc2)CCN(CCc2ccccc2)CC1` was inactive: 114%.
To `CCN1CCC(Nc2ccc(Cl)cc2)CC1` belongs inactive: 106%.
The value for `O=C(NCC1(N2CCCCC2)CCCCC1)c1cccc([N+](=O)[O-])c1` was inactive: 101%.
Consider `O=C(NCC1(N2CCCCC2)CCCCC1)c1ccc(OC(F)F)cc1`, for which the binding response (% of control) was inactive: 109%.
To `COc1cc(C(=O)NCC2(N3CCCCC3)CCCCC2)ccc1OC(F)F` belongs inactive: 104%; to `O=C(NCC1(N2CCOCC2)CCCCC1)c1cc(=O)[nH]c2ccccc12`, inactive: 101%.
The value for `CN1CCN(CCOC(=O)C(O)(c2ccccc2)c2ccccc2)CC1` was inactive: 106%; that for `COc1ccc(NC2CCN(C(=O)OC(C)(C)C)CC2)cc1` was inactive: 88%.
To `O=C(NCC1(N2CCCCC2)CCCCC1)c1cccc(C(F)(F)F)c1` belongs inactive: 93%.
